Legend:
Format in all cases: cell-based, mouse
[1] = test system: aP2 expression in C3H10T1/2 cells; assay: Quantitative competitive RT-PCR of adipocyte marker aP2 in C3H10T1/2 cells; details: normalized with actin
Description: (§1) Mouse fibroblast C3H10T1/2 cells (ATCC CCL 226) were grown as monolayers in DMEM with 10% fetal calf serum (Cansera, Greiner GmbH, Frickenhausen, Germany) at 37° C. in a 5% CO2 atmosphere. Treatment with BMP-2, Shh or a combination of both was done for 72 h under serumfree conditions or for 11 days in the presence of 10% FCS. The medium with inducers was changed twice a week.
(§2) BMP-2 was provided by W. Sebald, Würzburg, Germany, and used at a concentration of 500 ng/ml. […]
(§3) RNA was isolated using the High Pure RNA Isolation Kit (Roche Molecular Biochemicals Cat. No. 1 828 665). RNA quantity was determined by measuring absorption at 260 nm, and quality was checked in an agarose gel.
(§4) PPAR-γ, aP2, gli, ptc and actin mRNAs were quantitated via competitive RT-PCR using a multigene standard (Gilliland et al., 1990). […]
(§5) After linearization the standard vector was transcribed with T7 RNA polymerase into standard cRNA and treated with DNase I. 0.5 μg cellular RNA and different concentrations of standard cRNA were combined and reverse transcribed. […] PCR propducts were analyzed by gel electrophoresis with ethidium bromide staining.
(§6) In order to quantitate the PCR products resulting from competitive RT-PCR the intensity of the bands in the gel was measured with the gel imaging system E.A.S.Y. (Herolab GmbH, Wiesloch, Germany). […]

C3H10T1/2 cells = assay: Oil Red O staining of C3H10T1/2 cells (adipocyte-like phenotype); details: 11 days of treatment with FCS
Description: as §1
BMP-2 was provided by W. Sebald, Würzburg, Germany, and used at a concentration of 500 ng/ml. Human sonic hedgehog protein was derived from baculovirus-mediated expression in insect cells and applied to cells as described previously (Zehentner et al., 1999) The baculovirus supernatants containing approximately 20 μg/ml hedgehog protein were diluted 1:40 (v/v) in the assay. For RT-PCR the experiment was stopped with lysis buffer (4.5 M guanidin hydrochloride, 50 mM Tris-HCl, 30% TritonX-100 (w/v), pH 6.6) after 72 h. The cell lysate was stored at −80° C. until RNA extraction.
The stock solution of Oil Red O was prepared by dissolving 4.2 g of Oil Red O (Sigma-Aldrich Chemie GmbH, Deisenhofen, Germany) in 1200 ml isopropanol. The solution was left overnight at room temperature without stirring followed by filtration. At last 900 ml of water was added and solution was left overnight at 4° C. with stirring.
Cultures were fixed for 5 h with 4% paraformaldehyde in isotonic phosphate buffer. […]

[2] = test system: PPAR-γ expression in C3H10T1/2 cells; assay: Quantitative competitive RT-PCR of adipocyte marker PPAR-γ in C3H10T1/2 cells; details: normalized with actin
Description: as §1, §2, §3, §4, §5, §6

[3] = test system: ptc expression in C3H10T1/2 cells; assay: Quantitative competitive RT-PCR of hedgehog receptor patched (ptc) in C3H10T1/2 cells
Description: as §1, §2, §3, §4, §5, §6

[4] = test system: gli expression in C3H10T1/2 cells; assay: Quantitative competitive RT-PCR of hedgehog responsive gene gli in C3H10T1/2 cells
Description: as §1, §2, §3, §4, §5, §6

[5] = 72 h serumfree culture, BMP-2 500 ng/ml, Shh supernatant 1:40

B1: Bone morphogenic protein-2 (protein, UniProt P12643 283-396, looked up)
Bone morphogenetic protein 2: QAKHKQRKRLKSSCKRHPLYVDFSDVGWNDWIVAPPGYHAFYCHGECPFPLADHLNSTNHAIVQTLVNSVNSKIPKACCVPTELSAISMLYLDENEKVVLKNYQDMVVEGCGCR
notes: Bone morphogenic protein-2, provided by W. Sebald, used at a concentration of 500 ng/ml
aP2 expression, relative expression level in comparison to untreated cells [1, 5]: 3 fold | aP2 expression, relative expression level in comparison to untreated cells ([1]; 11 days with 10% FCS): 2.1 fold | Oil Red O staining / lipid vesicles, adipocyte phenotype (C3H10T1/2 cells): a significant amount of cells acquired the rounded shape of mature adipocytes | PPAR-γ expression, relative expression level in comparison to untreated cells [2, 5]: 3.5 fold | PPAR-γ expression, relative expression level in comparison to untreated cells ([2]; 11 days with 10% FCS): 2.5 fold | patched relative expression level increased by factor ([3]; 72 h serumfree): 0.5 factor | patched (ptc) mRNA expression, increase ([3]; 11 days with serum): no increase | gli expression, increase compared to the untreated control ([4]; 72 h serumfree): 3 fold | gli expression, increase compared to the untreated control ([4]; 11 days in the presence of serum): no effect

Source: US20040171533A1, “Methods and compositions for regulating adiopocytes” (priority 2000, published 2004)
